In PubChem BioAssay AID686996 (Broad Institute, 2013):
This is a selection; strong and weak results do not stand in their true shares. Activity calls are given as the source filed them.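 The calls were made as follows: active = mean inhibition across replicates at least about 35%, with every replicate also reaching that limit (limit read from the data); inconclusive = only one of the two criteria met; inactive = neither criterion met.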

The chains behind the UniProt entries cited, without tags or fusion partners. Where a name states a change or a piece, a line headed by the entry shows the natural chain unless it says otherwise.
UniProt P55212: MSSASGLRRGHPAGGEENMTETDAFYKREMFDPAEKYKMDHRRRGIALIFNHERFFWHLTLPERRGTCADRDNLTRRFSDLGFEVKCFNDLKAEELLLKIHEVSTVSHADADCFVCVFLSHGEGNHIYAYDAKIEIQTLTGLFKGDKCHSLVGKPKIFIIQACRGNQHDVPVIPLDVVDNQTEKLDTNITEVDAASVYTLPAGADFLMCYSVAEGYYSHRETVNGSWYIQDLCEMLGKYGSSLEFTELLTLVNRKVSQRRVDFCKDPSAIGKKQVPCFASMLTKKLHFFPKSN

Molecular target: Caspase-6 (Homo sapiens) (UniProt P55212)
Experiment: human caspase-6 inhibitors, primary screen, biochemical, VEID-R110 fluorescence, single point, set 2 (AID 686996);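 also: 0% = median of neutral control wells and 100% = no fluorescence left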
Details: purified caspase-6, Z-VEID-R110 cleavage fluorescence; at 12.5 µM; active compounds read high

Compound | inhibition
Cc1cc(SC(NC=O)C(Cl)(Cl)Cl)ncn1 (stereo not given) | inactive: 4.76%
O=[N+]([O-])c1ccc(Nc2ccc(Oc3ccc([N+](=O)[O-])cc3[N+](=O)[O-])cc2)c([N+](=O)[O-])c1 | inactive: 1.86%
COc1cc(C(=O)NCC2(N3CCOCC3)CCCCC2)ccc1OCC(C)C | inactive: 3.5%
O=[N+]([O-])c1ccc(-c2cc([N+](=O)[O-])c(O)c([N+](=O)[O-])c2)cc1 | inactive: 21.5%
O=[As](O)(c1ccc(O)cc1)c1ccccc1O | inactive: 12.1%
C[As](=O)(O)c1cccc(C(=O)O)c1 | inactive: -0.409%
[N-]=[N+]=NC1CCCCC1NC(=O)c1cc([N+](=O)[O-])cc([N+](=O)[O-])c1 (stereo not given) | inactive: 2.52%
Cc1ccc(OP(=O)(Nc2ccc([N+](=O)[O-])cn2)Oc2ccc(C)cc2)cc1 | inactive: -3.02%
Cc1ccc2nc3c(c(C)c2c1)CC(C(Cl)Cl)S3 (stereo not given) | inactive: -2.61%
CC(C)c1ccc(OP(=O)(Nc2ccccn2)Oc2ccccc2F)cc1 (stereo not given) | inactive: 1.8%
COC(=O)C1(C)COP(=O)(N2CCCCCC2)OC1 (stereo not given) | inactive: -2.77%
O=C(OC1CN2CCC1CC2)c1cccc2[nH]cnc12 (stereo not given) | inactive: -14.6%
CC(C)NC(=O)NP(=O)(Oc1ccccc1)Oc1ccccc1 | inactive: -1.57%
Cc1c2c(nc3ccccc13)SC(C(Cl)Cl)C2 (stereo not given) | inactive: 1.91%
Cc1cc(=O)[nH]c(N[N+](=O)[O-])n1 | inactive: 1.73%
COc1ccc(CN2/C(=N\P(=O)(Oc3ccccc3)Oc3ccccc3)Cc3ccccc3C2C2CC2)cc1 (stereo not given) | inactive: 0.489%
O=P1(N(CCCl)CCCl)OCCCN1CCCl (stereo not given) | inactive: -6.87%
O=P1(N(CCCl)CCCl)Nc2ccccc2N1 | inactive: -3.72%
COc1cc(I)ccc1[As](=O)(O)O | inactive: -0.589%
COc1ccc2nc(NP(=O)(c3ccccc3)c3ccccc3)sc2c1 | inactive: -5.34%
O=[N+]([O-])c1cc(Oc2ccc([N+](=O)[O-])cc2C(F)(F)F)cc([N+](=O)[O-])c1 | inactive: -1.43%
COc1ccc(N/C(=N/P(=O)(N2CCOCC2)N2CCOCC2)N2CCOCC2)cc1 | inactive: -4.68%
Cc1ccc(N/C(=N/P(=O)(N2CCOCC2)N2CCOCC2)N2CCOCC2)cc1 | inactive: 2.45%
CN(C(=O)Cc1ccc(Cl)c(Cl)c1)[C@H]1CCCC[C@H]1N1CCCC1 | inactive: -8.6%
NC(=O)c1cc([N+](=O)[O-])cc([N+](=O)[O-])c1N | inactive: 2.11%

Compound | inhibition
Clc1ccc(Cl)c(NC2=NCC(CBr)S2)c1 (stereo not given) | inactive: 1.21%
Cc1ccc(OP(=O)(Nc2nccs2)Oc2ccc(C)cc2)cc1 | inactive: -0.606%
COc1ccccc1OP(=O)(Nc1ccc(C)cn1)Oc1ccccc1OC | inactive: -1.55%
O=C(NC(Sc1ccncn1)C(Cl)(Cl)Cl)c1ccccc1 (stereo not given) | inactive: 3.93%
CC(C)CC(=O)NC(Sc1ccc(Cl)cc1)C(Cl)(Cl)Cl (stereo not given) | inactive: -5.86%
Nc1cc(N)c2nonc2c1[N+](=O)[O-] | inactive: 7.31%
CN(C)P(=O)(N(C)C)n1c(Nc2ccccc2)nnc1-c1ccccc1 | inactive: 1.83%
O=P(Nc1nc2ccc(Cl)cc2s1)(c1ccccc1)c1ccccc1 | inactive: 1.6%
CCCC1OP(N)(=O)OCC1CC (stereo not given) | inactive: -1.38%
O=C(O)c1ccccc1[As](=O)(O)O | inactive: 2.77%
CC(=O)Nc1ccc([As](=O)(O)O)cc1 | inactive: 2.15%
CCn1c(=O)n(C2CCN(CC3CCCCCCC3)C[C@H]2CO)c2ccccc21 (stereo not given in full) | inactive: 6.77%
Cc1ccc(NP(=O)(Oc2ccccc2F)Oc2ccccc2F)nc1 | inactive: 0.288%
CN(C(=O)Cc1ccc(Cl)c(Cl)c1)[C@H]1CCCC[C@@H]1N1CCCC1 | inactive: -2.92%
Nc1cccc2ccc([As](=O)(O)O)cc12 | active: 50.3%
CN(C(=O)Cc1ccccc1)C1CC[C@@]2(CCCO2)C[C@@H]1N1CCCC1 (stereo not given in full) | inactive: 5.35%
O=P1(N(CCCl)CCCl)OCCCS1 (stereo not given) | inactive: -5.87%
O=C(Nc1cc([As](=O)(O)O)ccc1O)c1ccccc1 | inactive: 7.06%
O=[N+]([O-])c1ncn(CCn2ncnc2[N+](=O)[O-])n1 | inactive: 0.706%
CC(C)(C)C(=O)NC(Sc1ccncn1)C(Cl)(Cl)Cl (stereo not given) | inactive: 3.02%
O=C(O)CNc1ccc([As](=O)(O)O)cc1 | inactive: -0.137%
O=[N+]([O-])c1cccc(NC2=NCC(CBr)S2)c1 (stereo not given) | inactive: -2.85%
COC(=O)C1(C)COP(=O)(Nc2ccccc2)OC1 (stereo not given) | inactive: -0.447%
COc1ccc(C2=NCC(CBr)S2)cc1 (stereo not given) | inactive: -0.025%
O=[N+]([O-])c1cc([N+](=O)[O-])c(CCNc2ccccc2)c([N+](=O)[O-])c1 | inactive: 2.11%
